This is a selection; strong and weak results do not stand in their true shares. Inconclusive results are not listed. Activity calls are given as the source filed them. Calls follow the shape of the dose curve; as a rule, active = well fitted cell-killing curve with a large enough effect; inconclusive = small, poorly fitted or top-dose-only effect, or effect the other way; inactive = flat fitted curve, though single readings scatter.
% is scaled to controls: 0 for no effect and ±100 for the full control effect.

This assay is described as follows: qHTS assay for MDR1-selective chemotherapeutics: Primary screen using the parental adenocarcinoma cell KB-3-1. Also: nearly all actives have a fitted effect of over 60% in size. As to conditions: KB-3-1 viability, CellTiter-Glo ATP luminescence, 72 h; at 46.1 µM (top of the series). From the text:
A prime difficulty in effectively treating cancer is the development of cellular resistance to multiple structurally unrelated anticancer drugs, a phenomenon known as multidrug resistance (MDR). […] Numerous strategies to overcome P-gp-mediated MDR have been explored, including the design of drugs that evade recognition and efflux, and development of inhibitors to block efflux and restore drug accumulation. […] An alternative approach is to exploit resistance by identifying drugs that target MDR cells over the non-resistant parental cells from which they were selected. […]
Our goal is to identify compounds that selectively kill P-gp-expressing MDR cells. […] This assay will be utilized to conduct a quantitative high-throughput screen (qHTS) in collaboration with the NIH Chemical Genomics Center to identify selective agents, and probe hits arising from the screen will be validated using secondary assays and characterized through a well-established follow-up research program. […]
Briefly, 5 microL of media containing either KB-3-1 cells (columns 1-2, 4-48) are dispensed into Greiner white, treated solid-bottom 1536-well assay plates (media-only control is added to column 3). […] CellTiter-Glo (2.5 µL/well) is then added, and the plates are read in a ViewLux reader (Perkin-Elmer, clear luminescence filter, 1 second exposure, 1x binning) following a 10 minute incubation. […]
Background: Quantitative high-throughput screening tests each substance at several concentrations.
Turning to `CCC(=O)N(c1ccccc1)C1(COC)CCN(CCc2cccs2)CC1`, the activity change, negative = cytotoxic was inactive: -0.0491%.

Take `CCC(=O)N(c1ccccc1)C1(COC)CCN(CCn2nnn(CC)c2=O)CC1`: the activity change, negative = cytotoxic is inactive: 0%.

These data come from PubChem BioAssay AID1347075 (National Center for Advancing Translational Sciences (NCATS), 2019).
